Data reported in ChEMBL document CHEMBL1811916, “Selective kainate receptor (GluK1) ligands structurally based upon 1H-cyclopentapyrimidin-2,4(1H,3H)-dione: synthesis, molecular modeling, and pharmacological and biostructural characterization” (J Med Chem, 2011).

The chains behind the UniProt entries cited, without tags or fusion partners. Where a name states a change or a piece, a line headed by the entry shows the natural chain unless it says otherwise.
UniProt P22756: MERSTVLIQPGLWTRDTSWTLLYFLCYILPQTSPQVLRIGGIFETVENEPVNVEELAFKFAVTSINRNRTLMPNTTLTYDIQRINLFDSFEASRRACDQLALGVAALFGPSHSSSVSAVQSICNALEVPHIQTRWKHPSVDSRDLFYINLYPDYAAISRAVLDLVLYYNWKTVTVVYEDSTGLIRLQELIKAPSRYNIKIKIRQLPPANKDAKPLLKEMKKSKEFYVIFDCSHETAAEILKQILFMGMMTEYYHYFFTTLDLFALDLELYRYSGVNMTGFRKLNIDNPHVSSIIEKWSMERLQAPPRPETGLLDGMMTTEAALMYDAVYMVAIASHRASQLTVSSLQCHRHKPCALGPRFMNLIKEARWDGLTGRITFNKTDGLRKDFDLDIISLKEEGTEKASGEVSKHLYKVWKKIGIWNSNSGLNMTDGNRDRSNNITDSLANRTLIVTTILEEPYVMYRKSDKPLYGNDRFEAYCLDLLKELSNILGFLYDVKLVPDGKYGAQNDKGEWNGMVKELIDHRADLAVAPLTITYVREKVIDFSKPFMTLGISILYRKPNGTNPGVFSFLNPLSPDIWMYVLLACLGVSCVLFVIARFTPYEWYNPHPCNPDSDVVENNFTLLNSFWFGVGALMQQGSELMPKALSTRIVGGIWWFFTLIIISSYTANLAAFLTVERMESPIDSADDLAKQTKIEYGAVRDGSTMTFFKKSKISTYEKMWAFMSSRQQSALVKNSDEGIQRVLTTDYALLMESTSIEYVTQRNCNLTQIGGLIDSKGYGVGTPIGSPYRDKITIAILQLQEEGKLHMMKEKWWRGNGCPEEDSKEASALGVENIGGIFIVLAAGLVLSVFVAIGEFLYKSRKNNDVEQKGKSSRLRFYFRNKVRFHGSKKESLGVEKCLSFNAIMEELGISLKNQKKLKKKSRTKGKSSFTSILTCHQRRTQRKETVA

Experiments:
Rattus norvegicus = species: Rattus norvegicus; test: Ratio of Ki for rat GluA2 to Ki for rat GluK1
[1] = system: GluK3/GluK1 Ki ratio (Rattus norvegicus); test: Ratio of Ki for rat GluK3 to Ki for rat GluK1
[2] = target: Glutamate receptor ionotropic, kainate 1 (Rattus norvegicus, UniProt P22756); test: Displacement of [3H]SYM2081 from rat GluK1 expressed in Sf9 cells

| Compound | Ratio Ki (Rattus norvegicus) | further results |
| --- | --- | --- |
| N[C@@H](Cn1c(=O)[nH]c(=O)c2cscc21)C(=O)O | 119 | – |
| N[C@@H](Cn1c(=O)[nH]c(=O)c2c3c(sc21)CCCC3)C(=O)O | – | Ratio Ki [1]: 20 |
| N[C@@H](Cn1c(=O)n(Cc2ccsc2C(=O)O)c(=O)c2cscc21)C(=O)O | – | Ki [2]: 157 nM |
| N[C@@H](Cn1c(=O)[nH]c(=O)c2ccsc21)C(=O)O | 85 | – |
